Assay results from publication PMC5019189 (European journal of pharmacology, 2015).

Tested on: HUVEC
Assay: Cell viability
Assay type: cell-based, human

`Cn1cc[nH]c1=S` [MMI, 3-methyl-1, 3 imidazole-2 thione] was tested, and the “TC50 of MMI relative to the phenyl appended compounds” value (MTS, HUVEC) was “two to five times higher” and the “toxic to inhibitory index (TII), ratio of TC50 to IC50” value (TC50 (MTS, HUVEC) / IC50 (VCAM-1 ELISA, HUVEC)) was 2.
